Measurements from patent publication US20120015414A1, “Production of organic compounds” (priority 2010, published 2012).

Experiment: Solubility of purified OleA on concentration
Format: physicochemical
Conditions: purified His-tagged OleA after concentration
Method: Purification of OleA. Cells were resuspended in 20 mM sodium phosphate buffer, 500 mM NaCl pH 7.4 with EDTA-free protease inhibitor tablets (Roche). Cells were disrupted by 3 passes through a chilled French pressure cell at 1200 psi and centrifuged at 27,000 g for 90 min to obtain the soluble protein fraction. The soluble fraction was centrifuged at 27,000 g for 30 min to clear prior to loading onto a Pharmacia Biotech LCC 501 FPLC equipped with a 5 ml Ni(II)-loaded HisTrap HP column (Amersham Biosciences) equilibrated with 20 mM sodium phosphate, 500 mM NaCl pH 7.4 buffer. The OleA protein was eluted at 135 mM imidazole. Ten g wet weight of cell paste yielded 60 mg purified OleA. Fractions were analyzed by SDS-PAGE and Simply Blue Safestain (Invitrogen). Pooled fractions were concentrated, and imidazole removed, with 3 passes through a 50 ml pressure concentrator (Amicon) using a 10,000 MWCO membrane (Millipore). Alternatively, after concentration of fractions, the OleA protein was dialyzed 3 times at 4° C. to remove the imidazole. Protein concentrated up to 30 mg/ml remained soluble and active.

B1: OleA: His-tagged OleA protein from Xanthomonas campestris produced in E. coli and purified (protein, UniProt Q8PDX2 1-338, looked up)
Acyl-CoA:acyl-CoA …: MLFQNVSIAGLAHIDAPHTLTSKEINERLQPTYDRLGIKTDVLGDVAGIHARRLWDQDVQASDAATQAARKALIDANIGIEKIGLLINTSVSRDYLEPSTASIVSGNLGVSDHCMTFDVANACLAFINGMDIAARMLERGEIDYALVVDGETANLVYEKTLERMTSPDVTEEEFRNELAALTLGCGAAAMVMARSELVPDAPRYKGGVTRSATEWNKLCRGNLDRMVTDTRLLLIEGIKLAQKTFVAAKQVLGWAVEELDQFVIHQVSRPHTAAFVKSFGIDPAKVMTIFGEHGNIGPASVPIVLSKLKELGRLKKGDRIALLGIGSGLNCSMAEVVW
modifications: His tag
notes: His-tagged OleA protein from Xanthomonas campestris produced in E. coli and purified
  concentration at which protein remained soluble and active: up to 30 mg/ml
